For this assay, the target named is Kappa-type opioid receptor (Homo sapiens, UniProt P41145). Nature of the assay: Incorporation of [35S]GTP-gamma-S, into CHO membranes expressing human Opioid receptor kappa 1.

Sequences of proteins named here, by UniProt entry; tags and fusion partners are left off. A change or cut given only in a name is not applied to a line headed by its entry.
UniProt P41145: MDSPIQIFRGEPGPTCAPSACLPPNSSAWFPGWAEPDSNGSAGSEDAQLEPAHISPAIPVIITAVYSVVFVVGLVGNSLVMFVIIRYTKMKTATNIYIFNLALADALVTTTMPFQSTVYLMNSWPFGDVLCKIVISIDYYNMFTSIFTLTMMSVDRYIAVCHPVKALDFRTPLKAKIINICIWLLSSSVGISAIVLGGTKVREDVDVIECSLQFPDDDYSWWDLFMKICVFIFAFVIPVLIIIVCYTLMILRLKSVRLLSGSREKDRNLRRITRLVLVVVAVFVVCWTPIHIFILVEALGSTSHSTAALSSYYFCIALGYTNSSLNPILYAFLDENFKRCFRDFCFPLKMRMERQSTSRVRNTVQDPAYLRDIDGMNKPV

From ChEMBL document CHEMBL1145777 (J Med Chem, 2003) come the findings set out here.

Consider `CN(C(=O)Cc1ccc(Cl)c(Cl)c1)C1CCC2(CCCO2)CC1N1CCCC1` (stereo unspecified), for which the EC50 came to 18 nM.

Usually EC50 stands for the concentration that produces a half-maximal response. Low readings indicate a more potent agent, high ones a less potent agent.
